iPSC survival up – enhancers of single-cell hiPSC survival, primary screen, ATPlite luminescence. 100% = ROCK inhibitor wells, 0% = DMSO. survival enhancement, % at 20 µM. actives 0.044% (n = 360,000); in the data active means survival enhancement above about 18%;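 further: cells exposed to compounds for 16 hours before the ATP read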
PGC1a acetyl inh – inhibitors of PGC1a acetylation signal, primary screen, cell-based, U2OS, AlphaScreen, inhibitor mode | AlphaScreen anti-acetyl-lysine; with virally co-expressed GCN5 acetyltransferase | inhibition, % at 15.6 µM | actives 0.17% (n = 350,000);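 active means every replicate shows inhibition of at least 40%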
FN deposit inh – inhibitors of fibronectin matrix deposition, primary screen, AH1F cells, Alexa488-fibronectin fluorescence, plate reader | AH1F fibroblasts, overnight | inhibition, % at 12.6 µM | actives 0.086% (n = 350,000);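 active means mean inhibition across replicates of 30% or more, regardless of how many single replicates reach that level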
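Schedule: 1 h cell adhesion before compound, then overnight fibronectin incubation; test system: AH1F fibroblast monolayer depositing Alexa488-labelled fibronectin into matrix; quantity: 10000 AH1F cells per well; probe or stimulus: fluorescent fibronectin at 24 nM final; signal: fluorescence, ex 485 nm, em 525 nm; evaluation: percent inhibition as loss of matrix-bound fibronectin fluorescence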
C2C12 statin – suppressors of statin myotoxicity in C2C12 myotubes, primary screen, cell-based, single point, plate reader; rescue of ATP level, % at 7.49 µM; C2C12 myotubes + simvastatin, ATP luminescence, 48 h; scaled: DMSO 0, geranylgeraniol control 100; actives 0.78% (n = 330,000);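 active means mean ATP rescue above about 67%, or every replicate alone reaching that limit, limit read from the data, passing the limit was not always enough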;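 further: myotubes were challenged with 10 µM simvastatin during compound exposure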
Yeast UUG start – alters start codon recognition fidelity in yeast. S. cerevisiae UUG-firefly luciferase reporter, luminescence/redox ratio. AID 602363. activity score, % at 18.7 µM. hit rate 0.13% among 350,000;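 active = replicate mean at a twofold rise or more, about +100% in these data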;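 note: firefly luciferase made from a UUG start codon reports start codon fidelity; reporter light over untreated wells divided by growth signal over untreated wells; some hits fall short of that in this replicate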
Numbers stand for hits; 0 = inactive; - = no result given; ! = not confirmed by another sample. Only some compounds are listed: those with a hit (about 0.91% of all), similar ones and a draw of the others.

SMILES	iPSC survival up	PGC1a acetyl inh	FN deposit inh	C2C12 statin	Yeast UUG start
Cc1ccc(CN2CCC(C(=O)NCCC(C)C)CC2)o1	0	0	-	109	0
CCCNC(=O)Nc1ccc2c(c1)C(=O)N(C)C[C@H](OC)[C@H](C)CN(CC1CCCC1)[C@@H](C)CO2	-	44	0	0	-
CO[C@H]1CN(C)C(=O)c2ccc(NC(=O)Nc3ccc(Cl)c(Cl)c3)cc2OC[C@H](C)NC[C@@H]1C	-	-	31!	0	0
CCCNC(=O)Nc1ccc2c(c1)C(=O)N(C)C[C@@H](OC)[C@@H](C)CN(CC1CCCC1)[C@@H](C)CO2	-	0	0	0	-
CO[C@H]1CN(C)C(=O)c2cc(NC(=O)Nc3cc(Cl)cc(Cl)c3)ccc2OC[C@H](C)NC[C@H]1C	-	0	32!	0	-
CO[C@H]1CN(C)C(=O)c2cc(NC(=O)Nc3ccc(Cl)c(Cl)c3)ccc2OC[C@@H](C)NC[C@H]1C	-	0	0	0	-
CO[C@H]1CN(C)C(=O)c2cc(NC(=O)Nc3ccc(Cl)c(Cl)c3)ccc2OC[C@@H](C)NC[C@@H]1C	-	0	32!	0	-
CO[C@@H]1CN(C)C(=O)c2cc(NC(=O)Nc3cc(Cl)cc(Cl)c3)ccc2OC[C@H](C)NC[C@@H]1C	-	0	0	0	-
O=C(c1cccc(F)c1)N1C[C@@H]2[C@H](c3ccccc31)[C@@H](CO)N2C(=O)c1cccc(F)c1	-	0	0	0	0
CO[C@H]1CN(C)C(=O)c2cc(NC(=O)c3ccccc3F)ccc2OC[C@@H](C)N(C(C)=O)C[C@@H]1C	-	130	0	0	-
CCC(=O)N1CC[C@@H]2[C@H]1c1cc(C#Cc3ccc(OC)cc3)ccc1N[C@@H]2CO	-	0	0	0	0
C/C(=N/Nc1nc(-c2ccc(Cl)cc2)cs1)c1cccs1	0	0	0	144	0
Cc1cc(NC(=O)Nc2ccccc2F)ccc1Br	0	0	39	0	0
O=C(Oc1ccc2c(c1)C(=O)c1ccccc1CO2)c1ccccc1	0	0	0	107	0
Cc1noc(C)c1S(=O)(=O)Nc1ccc2c(c1)C(=O)N([C@H](C)CO)C[C@H](C)[C@@H](CN(C)C(=O)Nc1ccc(F)cc1)OCCCC[C@@H](C)O2	-	0	0	-	0
CC1(C)CC(=O)C2=C(C1)c1c(ccc3ccccc13)NC2c1ccc(OCC(=O)O)cc1 (stereo unspecified)	0	0	0	0	0
CC1(C)CC(=O)C2=C(C1)c1c(ccc3ccccc13)NC2c1ccc(Br)o1 (stereo unspecified)	0	0	-	107	0
O=C(COc1cc(=O)n2c(n1)SCCC2)c1ccccc1	0	0	0	114	0
COc1cc(=O)n2c(n1)SCCC2	0	0	-	0	0
CC(=O)N1CCCCN2[C@H](CO)[C@@H](c3ccc(C#Cc4ccccc4F)cc3)[C@@H]2C1	-	0	-	-	0
CC(C)NC(=O)CN1C(=O)NC(CCc2ccccc2)C1=O (stereo unspecified)	0	0	-	114	0
Cn1c(C(=O)N2CCCC(C(=O)O)C2)cc2sccc21 (stereo unspecified)	0	0	-	96	0
C=CCn1c(COc2cccc3cccnc23)nnc1SCC(=O)O	0	0	-	105	0
C[C@H](CO)N1C[C@H](C)[C@@H](CN(C)S(=O)(=O)c2ccc(Cl)cc2)Oc2ccc(N(C)C)cc2CC1=O	-	0	-	0	0
O=S(=O)(NN=C1CCCCC1)c1ccccc1	0	0	0	115	0
SMILES	iPSC survival up	PGC1a acetyl inh	FN deposit inh	C2C12 statin	Yeast UUG start
Cc1cc(Br)cn2c(Cc3cccc(F)c3)c(-c3ccc(C#N)cc3)nc12	0	-	30	-	-
CCCCN(CCCC)S(=O)(=O)c1ccc(NC(=O)CN2CCOCC2)cc1	0	0	-	130	0
Cc1ccsc1C1Nc2ccc3ncccc3c2C2=C1C(=O)CCC2 (stereo unspecified)	0	0	-	79	0
C[C@@H]1CN([C@H](C)CO)C(=O)c2cc(NS(=O)(=O)c3ccccc3)ccc2O[C@H]1CN(C)C(=O)Nc1ccc(F)cc1	-	0	-	0	-
COc1ccc(C2c3cc(OC)c(OC)cc3CC3C(=O)OCC32)cc1OC (stereo unspecified)	0	0	-	96	0
O=C(NCc1ccccc1)[C@H]1[C@H](CO)[C@H]2Cn3c(cccc3=O)[C@@H]1N2C(=O)c1cnccn1	-	0	-	-	-
